Values of other authors as cited in US20050003431A1, “Monovalent, multivalent, and multimeric MHC binding domain fusion proteins and conjugates, and uses therefor” (priority 1996, published 2005).

By UniProt entry, the sequences of proteins in these tests, tags left out. Residues count along the entry.
UniProt P01903, 26-254 limits assumed: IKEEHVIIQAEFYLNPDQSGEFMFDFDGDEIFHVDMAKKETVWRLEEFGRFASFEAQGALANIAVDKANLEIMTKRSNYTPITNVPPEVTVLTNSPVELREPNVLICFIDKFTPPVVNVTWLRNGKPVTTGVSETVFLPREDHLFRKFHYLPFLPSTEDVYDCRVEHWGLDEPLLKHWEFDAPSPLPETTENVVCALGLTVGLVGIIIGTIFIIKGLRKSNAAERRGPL
UniProt P01911, 30-266 limits assumed: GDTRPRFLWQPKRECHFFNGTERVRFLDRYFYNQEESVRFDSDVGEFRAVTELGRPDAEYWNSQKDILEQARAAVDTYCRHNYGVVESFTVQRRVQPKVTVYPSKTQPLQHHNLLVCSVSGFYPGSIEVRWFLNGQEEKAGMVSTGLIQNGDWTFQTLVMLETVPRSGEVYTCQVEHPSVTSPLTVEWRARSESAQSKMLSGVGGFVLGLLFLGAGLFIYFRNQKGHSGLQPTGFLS

Biological target: HLA-DR2 (encoded by the DRA, DRB1*1501 genes) (Homo sapiens, UniProt P01903+P01911)
Conditions: cited from earlier work

## CC[C@H](C)[C@H](NC(=O)[C@H](CC(N)=O)NC(=O)[C@H](CCCCN)NC(=O)[C@H](Cc1ccccc1)NC(=O)[C@H](Cc1ccccc1)NC(=O)[C@H](Cc1cnc[nH]1)NC(=O)[C@@H](NC(=O)[C@@H](NC(=O)[C@@H]1CCCN1C(=O)[C@H](CC(N)=O)NC(=O)[C@@H](N)CCC(=O)O)C(C)C)C(C)C)C(=O)N[C@H](C(=O)N[C@H](C(=O)N1CCC[C@H]1C(=O)N[C@@H](CCCNC(=N)N)C(=O)O)[C@@H](C)O)C(C)C
  affinity for purified DR2: high affinity
